Target: T1, Key_EGFR (Original Key targeted to EGFR by DARPin)
T1 construct: The Key alone; The His/TEV tag is marked optional; also called EGFR-targeted Key
T1 chain: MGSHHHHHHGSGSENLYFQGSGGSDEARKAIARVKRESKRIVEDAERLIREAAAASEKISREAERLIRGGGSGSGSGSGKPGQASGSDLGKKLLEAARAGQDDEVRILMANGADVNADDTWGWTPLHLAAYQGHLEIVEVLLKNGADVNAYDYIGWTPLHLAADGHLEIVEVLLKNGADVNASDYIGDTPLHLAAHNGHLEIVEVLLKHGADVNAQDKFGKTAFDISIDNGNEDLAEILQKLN
Assay: confocal microscopy; HEK293T/EGFR cells carry the Key without the Cage
Procedure: Co-localization dependent activation was also observed at the sub-cellular level by confocal microscopy. CL_CHKE recruited Bcl2-AF680 to the plasma membrane of HEK293T/Her2/EGFR cells but not HEK293T/Her2 or HEK293T/EGFR (FIG. 2c).
HEK293T cells were grown in ibidi μ-slide 8 well coverslips for 1 day at 37° C. and 5% CO2 (ibidi 80826). Cell staining and incubation were performed in DMEM, high glucose, HEPES, no phenol red (Gibco 21063029). Cell nuclei were stained with Invitrogen Molecular Probes NucBlue™ Live ReadyProbes™ Reagent according to manufacturer's instructions (Invitrogen R37605). Cells were incubated in culture medium containing 1% BSA, 20 nM Her2_Cage-I269S, 20 nM Key_EGFR, and 50 nM Bcl2-AF680 for 1-2 hours at 37° C. and 5% CO₂. Images were acquired on a Leica SP8X confocal microscope and analyzed in Fiji.

binding result: no binding
B1: Bcl2-AF680 (other)
chain: MGSHHHHHHGSGSENLYFQGSGGSAHAGRTGYDNREIVMKYIHYKLSQRGYEWDAGDVGAAPPGAAPAPGIFSSQPGHTPHPAASRDPVARTSPLQTPAAPGAAAGPALSPVPPVVHLTLRQAGDDFSRRYRRDFAEMSSQLHLTPFTARGRFATVVEELFRDGVNWGRIVAFFEFGGVMCVESVNREMSPLVDNIALWMTEYLNRHLHTWIQDNGGWDAFVELYGPSMRGC
modifications: Alexa Fluor 680 C2 Maleimide on the C-terminal cysteine
notes: It was used for confocal microscopy; also called Bcl2-cys labeled with Alexa Fluor 680; Effector
